ChEMBL document CHEMBL5113375, “Development of Mcl-1 inhibitors for cancer therapy” (Eur J Med Chem, 2021)

The chains behind the UniProt entries cited, without tags or fusion partners.
UniProt Q07820, whole entry: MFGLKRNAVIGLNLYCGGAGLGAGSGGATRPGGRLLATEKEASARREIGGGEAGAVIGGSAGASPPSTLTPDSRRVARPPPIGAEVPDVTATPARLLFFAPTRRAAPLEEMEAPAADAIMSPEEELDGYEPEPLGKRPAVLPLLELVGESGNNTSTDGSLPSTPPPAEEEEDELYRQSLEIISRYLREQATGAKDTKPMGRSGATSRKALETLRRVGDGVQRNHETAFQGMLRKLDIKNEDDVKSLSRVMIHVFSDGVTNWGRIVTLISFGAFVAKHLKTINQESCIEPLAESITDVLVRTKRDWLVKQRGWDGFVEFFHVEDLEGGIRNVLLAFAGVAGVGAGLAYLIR
UniProt Q07817, whole entry: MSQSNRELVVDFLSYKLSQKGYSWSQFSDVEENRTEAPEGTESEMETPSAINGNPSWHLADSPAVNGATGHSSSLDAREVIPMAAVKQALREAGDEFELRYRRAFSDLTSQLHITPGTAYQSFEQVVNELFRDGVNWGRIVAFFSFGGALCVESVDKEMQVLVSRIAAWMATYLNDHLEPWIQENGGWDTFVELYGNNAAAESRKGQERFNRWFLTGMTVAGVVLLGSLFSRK

Columns and labels:
[1] = target: MCL1-BAK1 complex (Homo sapiens, UniProt Q07820); assay: Inhibition of Mcl-1/Bak (unknown origin); type: protein-complex assay
[2] = target: Bcl-xL/BAK (Homo sapiens, UniProt Q07817); assay: Inhibition of Bcl-xL/Bak (unknown origin); type: protein assay

IC50 [1]: 0.28 µM
IC50 [2]: 0.76 µM
SMILES: Cc1cc2c(C(=O)NCC(C)c3ccccc3)c(O)c(O)cc2c(O)c1-c1c(C)cc2c(C(=O)NC[C@@H](C)c3ccccc3)c(O)c(O)cc2c1O (some centres not stated)
